Reference: patent publication US6800639B2, “Pharmaceutical combination for the treatment of cancer” (Shire BioChem Inc., priority 2001, dated 2004)

[1] = 25 mg/kg i.v. qd×5, non-tumored mice

For Nc1ccn([C@@H]2CO[C@H](CO)O2)c(=O)n1 [Troxacitabine, (−)-β-L-Dioxolane-Cytidine], the “deaths and weight loss” value (10 mg/kg i.v. qd×5, non-tumored mice) was “no deaths or weight loss”, the “average weight loss on Day 5” value [1] was “one” and the deaths [1] was “no deaths”.
